The values that follow are results of earlier work, collected in US9999859B2, “Immobilized multi-layer artificial membrane for permeability measurements (PAMPA)” (CORNING INCORPORATED, priority 2005, dated 2018).

The conditions of the data set: prior art PAMPA membrane; PBS pH 7.4, room temperature, no agitation; cited from earlier work. On the technique in general: PAMPA measures passive passage across an artificial lipid membrane.

The structures appear in SMILES notation.

On to `O=C(O)Cc1ccccc1Nc1c(Cl)cccc1Cl` [diclofenac], for which the “Pe Prior Art Results” value is 1.37 10^−6 cm/s. Turning to `CCN1CCCC1CNC(=O)c1cc(S(N)(=O)=O)ccc1OC` (centres unmarked) [sulpiride], the “Pe Prior Art Results” value is listed as 0.03 10^−6 cm/s.
